# Tested on: CA1 pyramidal neurons from SCN1A (R1407X) Dravet syndrome mice
# Experiment: Brain-slice whole-cell recordings, excitatory neurons
# Assay type: cell-based, mouse
# Conditions: 10 nM
# Experimental: Mice (post-natal day 14-16) were anaesthetized using isoflurane and sacrificed by decapitation. Brain slices (300-μm thick) were cut using a vibratome in the sagittal plane. Slices were kept at room temperature until recording. The slices were transferred to a recording chamber constantly perfused at 34° C. with artificial cerebrospinal fluid (CSF) solution consisting of: 125 mM NaCl, 2.5 mM KCl, 25 mM NaHCO3, 1.25 mM NaH2PO4, 1 mM MgCl2, 2 mM CaCl2) and 10 mM glucose, aerated with 95% O2 and 5% CO2 (final pH of 7.4). Whole-cell patch-clamp recordings were made using a MultiClamp 700A amplifier and pClamp acquisition software (Molecular Devices) from neurons visually identified using infrared differential interference contrast imaging (BX51, Olympus). Electrodes were pulled using a Sutter P-2000 puller (Sutter Instruments) from borosilicate micropipettes (World Precision Instruments) with an initial resistance of ˜2-3 megaohms and filled with intracellular solution consisting of 125 mM KGlu, 4 mM KCl, 2 mM MgCl2, 10 mM HEPES, 10 mM EGTA, 4 mM ATP-Mg, 0.3 mM GTP-Na, and 8 mM Biocytin Hydrochloride adjusted to a final pH of 7.3 with KOH. D-Mannitol was used to adjust osmolarity to 300 mOsm. Bridge balance was applied to all recordings. Voltage recordings were filtered at 30 kHz and sampled at 100 kHz. A holding current was injected into neurons if required, setting their holding potential to approximately −75 mV. A current injection/action potential (AP) frequency relationship was established by injecting an 800 ms square pulse of progressively depolarising currents. An automated AP detection algorithm in Axograph was used to detect AP with visual confirmation. The integrated number of APs between injection current bins of the i-o relationships was calculated (Axograph X) in order to allow comparison between control and Hm1a. AP threshold voltage was defined as the voltage at which velocity reached 10 mV/ms. For the AP waveform analysis, amplitude was measured from threshold to peak, rise-time was determined as the time between 10% to 90% of the AP amplitude and AP width was measured at 50% of the peak amplitude. AP measured at ‘collapse’ were selected for each individual cell at the first current injection at which AP collapse was robust. APs at the same current injection were analyzed in the presence of Hm1a. Membrane input resistance was measured in current clamp mode by measuring the last 200 ms of the voltage trace generated by a current injection of −10 pA.
# To test the impact of synthetic Hm1a (Example 1) on excitatory neurons, whole-cell recordings were made from CA1 pyramidal neurons isolated from SCN1A (R1407X) Dravet syndrome mice. The input current versus AP firing rate relationship was not altered by the application of 10 nM Hm1a (FIG. 7). Hm1a had no impact on resting potential (Table 9) or input resistance (450±70 versus 420±60 MΩ, p=0.8, n=6) of the pyramidal neurons.
smiles,measurement,setting,value
CC(C)C[C@@H]1NC(=O)[C@H](Cc2ccc(O)cc2)NC(=O)[C@H](CCCNC(=N)N)NC(=O)[C@@H](NC(=O)[C@@H](N)CCC(=O)O)CSSC[C@@H]2NC(=O)[C@@H]3CSSC[C@@H](C(=O)N[C@@H](C)C(=O)N[C@@H](Cc4c[nH]c5ccccc45)C(=O)N[C@@H](CC(=O)O)C(=O)NCC(=O)N[C@H](C(=O)N[C@@H](Cc4ccccc4)C(=O)N[C@@H](CO)C(=O)O)[C@@H](C)O)NC(=O)[C@H](Cc4ccc(O)cc4)NC(=O)[C@H](CCCCN)NC(=O)[C@H](Cc4c[nH]c5ccccc45)NC(=O)[C@H](CC(=O)O)NC(=O)[C@H](CO)NC(=O)[C@H](CCCNC(=N)N)NC(=O)[C@H](CSSC[C@H](NC(=O)CNC(=O)CNC(=O)[C@H](Cc4ccccc4)NC1=O)C(=O)N[C@@H](CO)C(=O)N[C@@H](CO)C(=O)N[C@@H]([C@@H](C)O)C(=O)N[C@@H](CO)C(=O)N[C@@H](CC(=O)O)C(=O)N3)NC(=O)[C@H](CO)NC(=O)[C@H](CC(C)C)NC(=O)[C@H](Cc1c[nH]cn1)NC(=O)[C@H](CCCCN)NC2=O [Hm1a],input current versus AP firing rate relationship,,not altered
same,input resistance,"450±70 versus 420±60, p=0.8, no impact",420±60 MΩ
same,Action potential Rise at rheobase,control 0.45 ± 0.03,0.46 ± 0.05 ms
same,Action potential Width at rheobase,control 2.1 ± 0.2,2.1 ± 0.1 ms
same,RMP,control 75 ± 2,73 ± 2 mV
same,Action potential Amp at rheobase,"control 99 ± 3, n = 6",97 ± 4 mV
same,Action potential Threshold at rheobase,control −48.2 ± 2.9,−43.1 ± 3.1 mV

# From US11124550B2, “Proteinaceous molecules and methods of use” (priority 2015, dated 2021)
